Results: patent publication US11207296B2, “XPA inhibitor compounds and their use” (INDIANA UNIVERSITY RESEARCH AND TECHNOLOGY CORPORATION, priority 2017, dated 2021)
“And” between values parts separate entries of the source, which are not always exact repeats. Equal values may be shown once.

By UniProt entry, the sequences of proteins in these tests, tags left out.
UniProt P23025, whole entry: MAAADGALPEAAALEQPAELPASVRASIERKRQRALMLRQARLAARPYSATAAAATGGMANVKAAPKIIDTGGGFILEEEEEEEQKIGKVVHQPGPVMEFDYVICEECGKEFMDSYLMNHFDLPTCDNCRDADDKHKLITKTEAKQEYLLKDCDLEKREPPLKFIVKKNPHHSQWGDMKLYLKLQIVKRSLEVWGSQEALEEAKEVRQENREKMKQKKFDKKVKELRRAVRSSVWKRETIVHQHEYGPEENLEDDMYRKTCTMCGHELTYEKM

Biological target: full length XPA protein (Homo sapiens, UniProt P23025)
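Also: XPA expressed in Sf9 cells, preincubated with compound on ice before adding DNA, complex resolved on native polyacrylamide gel at 4 °C, PhosphorImager band intensity, binding inhibition versus DMSO.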

Compound	IC50
CC1=NN(c2cccc(C(=O)O)c2)C(=O)/C1=C\c1ccc(-c2ccc(Cl)c(C(=O)NCC3CC3)c2)s1	20 µM and 15 µM
CC1=NN(c2cccc(C(=O)O)c2)C(=O)C1Cc1ccc(-c2ccc(Cl)c(C(=O)NCc3ccc(F)cc3)c2)s1 (centres unmarked)	20 µM
